The source of these data is ChEMBL document CHEMBL1154587, “Discovery of novel sphingosine kinase 1 inhibitors” (Bioorg Med Chem Lett, 2009).

Amino acid sequences for entries named in this document (tags omitted).
UniProt Q9NYA1, whole entry: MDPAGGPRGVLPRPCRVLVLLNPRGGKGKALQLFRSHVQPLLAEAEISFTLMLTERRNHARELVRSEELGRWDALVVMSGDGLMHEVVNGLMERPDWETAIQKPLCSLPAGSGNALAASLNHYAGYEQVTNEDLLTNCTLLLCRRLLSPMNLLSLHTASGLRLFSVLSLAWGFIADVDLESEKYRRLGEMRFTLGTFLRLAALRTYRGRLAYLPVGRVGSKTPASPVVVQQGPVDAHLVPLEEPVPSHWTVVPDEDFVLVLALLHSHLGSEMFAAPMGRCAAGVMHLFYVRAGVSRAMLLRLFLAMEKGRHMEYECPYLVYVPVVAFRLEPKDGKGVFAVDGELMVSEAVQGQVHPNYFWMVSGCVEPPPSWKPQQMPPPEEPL

The target in the test is Sphingosine kinase 1 (Homo sapiens, UniProt Q9NYA1). The test can be described thus: Inhibition of human sphingosine kinase 1 by off chip mobility shift assay.

Structures are written as SMILES.

On to `CCCCCCCCc1ccc(CNC(=O)C(N)CCO)cc1` (racemic), for which the IC50 (commonly the concentration that gives 50% inhibition) is 3.5 µM.
For the compound `CCCCCCCCc1ccc(NC(=O)[C@@H](N)[C@@H](O)CC)cc1` (racemic), the IC50 stood at 3.2 µM.
